Test in series [1]: not given
This is another data set of the same source.

As for `OCCOCCOCCOCCO` [2-[2-[2-(2-hydroxyethoxy)ethoxy]ethoxy]ethanol] [listing 1 of 2 here], the flash point is 182.00 °C.

With `OCCOCCOCCOCCO` [2-[2-[2-(2-hydroxyethoxy)ethoxy]ethoxy]ethanol] [listing 2 of 2 here], the flash point in series [1] came to 204.44 °C.

Take `CCOc1nc(C(Cl)(Cl)Cl)ns1` [5-ethoxy-3-(trichloromethyl)-1,2,4-thiadiazole]: the flash point came out at 154.00 °C.

On to `CCl` [chloromethane], for which the flash point was -45.00 °C.
